According to BindingDB's records for PubMed 2885412 (Unwersity of Misscuri, 1987):
pKi: −log10 of the molar value. “And” between values parts separate entries of the source, which are not always exact repeats. Equal entries are not always repeated.

Molecular target: T1, Alpha-1A adrenergic receptor (Rattus norvegicus, UniProt P43140)
T1 sequence (P43140 whole entry): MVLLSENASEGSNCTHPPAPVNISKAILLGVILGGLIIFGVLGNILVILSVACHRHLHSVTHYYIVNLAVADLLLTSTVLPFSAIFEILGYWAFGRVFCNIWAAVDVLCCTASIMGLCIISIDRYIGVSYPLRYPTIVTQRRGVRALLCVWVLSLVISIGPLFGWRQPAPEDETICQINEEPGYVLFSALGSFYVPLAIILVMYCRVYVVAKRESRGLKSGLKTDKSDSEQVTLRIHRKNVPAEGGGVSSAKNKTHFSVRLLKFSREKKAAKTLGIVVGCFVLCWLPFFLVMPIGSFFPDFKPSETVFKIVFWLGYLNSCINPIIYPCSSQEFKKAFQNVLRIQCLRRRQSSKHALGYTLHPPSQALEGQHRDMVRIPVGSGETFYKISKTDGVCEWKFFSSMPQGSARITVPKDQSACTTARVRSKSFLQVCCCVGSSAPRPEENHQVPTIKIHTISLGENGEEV

pKi: 7.19 and 7.44
Compound: COC(=O)[C@@H]1[C@H]2C[C@H]3c4[nH]c5ccccc5c4CCN3C[C@@H]2CC[C@@H]1O [yohimbic acid methyl ester]
